Values quoted from earlier work as cited in patent US5849736A, “Isoxazoline and isoxazole fibrinogen receptor antagonists” (The DuPont Merck Pharmaceutical Company, priority 1995, dated 1998).

Settings: intranasal; Anik et al. J. Pharm. Sci. 73: 684-685 (1984); cited from earlier work

Substance: nafarelin acetate
- nasal bioavailability: ~ 2%
